Assay results taken from patent US11142525B2 (Pfizer Inc., priority 2018, dated 2021).
pIC50, pKi: −log10 of the molar value.

The chains behind the UniProt entries cited, without tags or fusion partners.
UniProt Q92918, whole entry: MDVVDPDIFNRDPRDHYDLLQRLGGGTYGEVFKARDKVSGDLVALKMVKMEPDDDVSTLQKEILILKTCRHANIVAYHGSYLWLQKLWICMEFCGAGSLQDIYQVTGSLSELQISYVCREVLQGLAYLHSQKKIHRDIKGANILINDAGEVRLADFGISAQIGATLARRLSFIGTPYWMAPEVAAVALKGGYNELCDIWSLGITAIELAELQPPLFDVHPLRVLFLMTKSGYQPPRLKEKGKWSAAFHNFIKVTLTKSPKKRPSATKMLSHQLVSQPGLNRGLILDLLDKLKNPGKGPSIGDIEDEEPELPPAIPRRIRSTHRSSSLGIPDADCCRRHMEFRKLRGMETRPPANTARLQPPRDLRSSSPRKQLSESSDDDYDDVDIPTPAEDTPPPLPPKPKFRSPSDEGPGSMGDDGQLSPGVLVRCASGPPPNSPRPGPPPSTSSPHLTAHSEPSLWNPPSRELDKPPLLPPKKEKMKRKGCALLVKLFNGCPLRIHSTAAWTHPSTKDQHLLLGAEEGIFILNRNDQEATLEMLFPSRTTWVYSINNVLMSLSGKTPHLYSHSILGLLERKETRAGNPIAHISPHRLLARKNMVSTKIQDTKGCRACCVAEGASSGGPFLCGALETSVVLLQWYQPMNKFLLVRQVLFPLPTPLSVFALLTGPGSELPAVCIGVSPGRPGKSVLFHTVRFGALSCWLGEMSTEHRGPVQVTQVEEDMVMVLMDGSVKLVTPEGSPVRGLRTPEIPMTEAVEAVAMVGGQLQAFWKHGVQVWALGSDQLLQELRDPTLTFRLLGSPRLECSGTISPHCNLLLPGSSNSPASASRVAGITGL

Legend:
[1] = tested on: phospho-SLP-76 (Ser376) in Jurkat cells; test: Phospho-SLP-76 (Ser376) Homogeneous Time Resolved Fluorescence (HTRF) assay in Jurkat cells; details: read-out: SLP76 Assay_IC50, Phospho-SLP-76 (Ser376) HTRF, anti-CD3 stimulation
[2] = target: human full-length recombinant HPK1 (Homo sapiens (Human), UniProt Q92918); test: HPK1 biochemical enzyme assay, microfluidic mobility shift assay (MSA); details: read-out: HPK1 Enzyme Assay_Ki

Structure (SMILES): CNCc1nc(N2CCC[C@H]2C)cc2c1CN(c1cccc(-c3nnc(C)n3CC(C)C)n1)C2=O
- pIC50 [1]: 6.19
- pKi [2]: 9.66
